Here are results for 1 substance from patent US8329429B2, “Method of enhancing recombinant protein production” (Induce Biologics Inc., priority 2007, dated 2012).

The subject of this assay is C2C12 cells. Briefly: C2C12 alkaline phosphatase assay of rhBMP after PreScission digestion. The class given is cell-based. Particulars: for ALP activity (U/μg protein) mean ± SD: n=4. From the text:
Alkaline phosphatase induction in C2C12 cells: The activity of recombinant hBMP-2 protein is quantitated based upon induction of alkaline phosphatase in in vitro cultured C2C12 cells, as has been described (see, e.g., Peel et al. J Craniofacial Surg. 2003; 14:284-291 and Hu et al. Growth Factors 2004; 22:29033).
C2C12 cells (ATCC accession number CRL-1772, Manassas, Va.) are passaged before confluent and resuspended at 0.5×10^5 cells/ml in MEM supplemented with 15% heat-inactivated fetal bovine serum, antibiotics and 50 μg/ml ascorbic acid. One ml of cell suspension is seeded per well of a 24 well tissue culture plate (BD Falcon, Fisher Scientific Cat #08-772-1). An aliquot of test BMP-2 sample is added and the cultures maintained at 37° C. and 5% CO2. Test BMP-2 samples included conditioned media, purified recombinant hBMP-2 isolated from conditioned media by heparin affinity chromatography, and as a positive control a commercially available purified recombinant hBMP-2 (R&D Systems, Minneapolis, USA). Control cultures (cultured in media without added BMP-2 sample) are cultured for 2 to 7 days. Medium is changed every two days.
At harvest cultures are rinsed with Tris buffered saline (20 mM Tris, 137 mM NaCl, pH 7.4) and M-Per lysis buffer (Pierce Biotechnology Inc., Rockford, Ill., catalogue #78501) is added. The cell layer is scraped into Eppendorf tubes and sonicated. The lysate is centrifuged at 5000×g at 5° C. for 10 minutes, and the supernatant assayed for alkaline phosphatase (ALP) by monitoring the hydrolysis of nitrophenol phosphate in alkaline buffer (Sigma-Aldrich, St. Louis Mo., catalog P5899) as described in Peel et al. J Craniofacial Surg. 2003; 14:284-291 or by using the Alkaline Phosphatase detection kit, Fluorescence (Sigma-Aldrich, catalogue #APF) according to manufacturer's instructions. To normalize the ALP activity the cellular protein content in each well is also assayed using the Coomasie (Bradford) Protein Assay (Pierce Biotechnology Inc., catalogue #23200). The normalized ALP activity for each sample is calculated by dividing the ALP activity per well by the protein content per well. An activity score is calculated by dividing the ALP activity for each sample by the mean ALP activity of the control and is compared to the score achieved by the positive BMP control.
Preparation of test materials: PreScission protease was obtained from Amersham Biosciences (GE Healthcare, Buckinghamshire, U.K) and was prepared according to the manufacturer's instructions. Recombinant hBMP-2 and rhBMP-7 (both CHO cell produced) were obtained from R&D Systems. The rhBMP samples were resuspended in 4 mM HCl to a final concentration of 10 μg/ml. Bovine serum albumin (BSA) was not included so that the only substrate for the protease was BMP. The cleavage buffer was prepared (50 mM Tris-HCl, 150 mM NaCl, 1 mM EDTA, pH 7).
Assessment of activity: Samples underwent digestion at room temperature for 6 hours. Reactions were stopped by freezing at −20° C. Digestion samples were diluted in alpha MEM+15% FBS and tested for BMP activity using the C2C12 assay described in Example 1.

As to “rhBMP-2: recombinant human BMP-2, CHO cell produced, obtained from R&D Systems”, the “ALP activity (U/μg protein) mean ± SD” value reads like this: (group 2: 20 μl rhBMP (10 μg/ml), no protease, no cleavage buffer (unincubated)) 19.0 ± 2.0 U/μg protein; (group 3: 20 μl rhBMP + 15 μl PreScission protease + 165 μl cleavage buffer, room temperature 6 hours) 12.5 ± 1.0 U/μg protein; (group 4: 20 μl rhBMP + 180 μl cleavage buffer alone, room temperature 6 hours) 12.0 ± 0.5 U/μg protein. Under “room temperature for 6 hours”, the “activity after PreScission digestion” value was “remained active”. In addition, under “room temperature for 6 hours”, the “activity after PreScission digestion compared to control BMP incubated in cleavage buffer alone” value is reported as “No loss of activity”.
